Assay results reported in patent US12384808B2, “Modulators of TNF-α activity” (Forward Therapeutics, Inc., priority 2022, dated 2025).

Chains of the proteins cited; added tags and fusions are not shown. Residues count along the entry.
UniProt P01375, 77-233 limits assumed: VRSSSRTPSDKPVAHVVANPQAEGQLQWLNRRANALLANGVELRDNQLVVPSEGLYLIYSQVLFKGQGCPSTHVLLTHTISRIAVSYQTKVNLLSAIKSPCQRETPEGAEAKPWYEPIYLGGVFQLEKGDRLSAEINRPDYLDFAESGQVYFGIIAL

Target: TNFα (Homo sapiens, UniProt P01375)
Assay: TNFα Induced HEK Blue Cellular Assay
Type: cell-based
Settings: read-out: IC50 value; HEK Blue TNFα reporter cells, TNFα 100 pg/ml, 24 hrs at 37° C., secreted alkaline phosphatase (QUANTI-Blue) read at 620 nm
Procedure: TNFα Induced HEK Blue Cellular Assay
Test articles were diluted in DMSO and serially diluted into 384 well assay plate (Corning 3765), at final concentrations ranging from […] to 0.5 nM. HEK Blue™ TNFα reporter cells were added at a final density of 10,000 cell per well in assay media [DMEM (Gibco, cat #21063-029), 10% fetal bovine serum (ExcelBio, cat #FND500), 1% Penicillin-Streptomycin (Solarbio, cat #P1400-100]. TNFα (R&D 210-TA-020/CF) was then added to the assay plate at a final concentration of 100 pg/ml. This plate was then incubated for 24 hrs at 37° C. and 5% CO2. Secreted alkaline phosphatase expression was then measured using QUANTI-Blue™ (Invivogen), according to manufacturer instructions and read on an Envision microplate reader at 620 nm.
Inhibition data for test compound over a range of concentration was plotted as percentage inhibition of the test compound (100%=maximum inhibition). IC50 values were determined after correcting for background [(sample read−mean of low control)/(mean of high control−mean of low control)] where by the low control is DMSO without stimulation and high control is DMSO with stimulation. The IC50 is defined as the concentration of test compound which produces 50% inhibition and was quantified using the 4 parameter logistic equation to fit the data.

**Q.** With `CN1C(=O)c2cccc(OC(F)F)c2[C@H]2C[C@@H]1c1nc3ccc(-c4ccc(NP(C)(C)=O)nc4)cc3n12` as the compound, how does the IC50 read?
**A.** Its IC50 is less than 100 nM.

**Q.** `CN1C(=O)c2cccc(OC(F)F)c2[C@H]2C[C@@H]1c1nc3ccc(-c4cnc(NP(C)(C)=O)nc4)cc3n12` was tested. Which IC50 did it give?
**A.** The IC50 was less than 100 nM.
